Measured values taken from PubChem BioAssay AID624380 (The Scripps Research Institute Molecular Screening Center, 2012).
The list shows a part of the results, in another mix than the full data. Active and inactive are the calls of the source.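 The calls were made as follows: active = mean activation above the mean of DMSO-only wells plus 3 SD (cut at about 0.5% in these data); inactive = the rest.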

The chains behind the UniProt entries cited, without tags or fusion partners.
UniProt P35372, whole entry: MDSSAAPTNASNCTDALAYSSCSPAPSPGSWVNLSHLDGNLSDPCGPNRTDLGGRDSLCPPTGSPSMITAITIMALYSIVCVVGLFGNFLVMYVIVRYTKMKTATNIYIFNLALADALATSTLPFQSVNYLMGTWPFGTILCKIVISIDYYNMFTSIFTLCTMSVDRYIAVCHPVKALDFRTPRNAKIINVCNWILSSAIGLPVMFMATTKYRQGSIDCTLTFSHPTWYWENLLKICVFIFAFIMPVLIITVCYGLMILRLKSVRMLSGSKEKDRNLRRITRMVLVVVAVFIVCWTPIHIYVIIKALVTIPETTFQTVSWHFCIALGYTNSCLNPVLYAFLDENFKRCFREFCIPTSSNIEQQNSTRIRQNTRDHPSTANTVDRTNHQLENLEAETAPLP

Molecular target: Mu-type opioid receptor (Homo sapiens) (UniProt P35372)
Experiment: mu opioid receptor activation, arrestin complementation – cell-based, luminescence, single concentration, counter-screen for mouse HTR2A agonist project, confirmation (AID 624380)
Settings: U2OS OPRM1 beta-arrestin PathHunter, at 9.3 µM, active compounds read high, DMSO 0%, DAMGO 9.3 µM 100%

SMILES	activation
COc1ccc(-n2nnnc2C(c2cc3ccccc3o2)N2CCC(n3c(=O)[nH]c4ccccc43)CC2)cc1 (centres undefined)	inactive: -0.08%
COc1ccc(-n2nnnc2C(c2ccccc2OC(F)(F)F)N2CCC(n3c(=O)[nH]c4ccccc43)CC2)cc1 (centres undefined)	active: 0.77%
COc1ccc(C(c2nnnn2-c2ccc3c(c2)OCCO3)N2CCC(n3c(=O)[nH]c4ccccc43)CC2)cc1 (centres undefined)	inactive: -0.2%
O=c1[nH]c2ccccc2n1C1CCN(C(c2cccs2)c2nnnn2-c2ccc3c(c2)OCCO3)CC1 (centres undefined)	inactive: -0.45%
